Laboratory results: ChEMBL document CHEMBL1132302, “Identification of pharmacokinetically stable 3, 10-dibromo-8-chlorobenzocycloheptapyridine farnesyl protein transferase inhibitors with potent enzyme and cellular activities” (J Med Chem, 1999)

Biological target: Protein farnesyltransferase (Homo sapiens, UniProt P49354+P49356)
Experiment: Inhibitory activity against Hras Farnesyltransferase (FPT).
Format: protein-complex assay

IC50 [nM]	SMILES
3.1	NS(=O)(=O)N1CCC(CC(=O)N2CCC([C@H]3c4ncc(Br)cc4CCc4cc(Cl)cc(Br)c43)CC2)CC1
1.9	CNC(=O)N1CCC(CC(=O)N2CCC([C@H]3c4ncc(Br)cc4CCc4cc(Cl)cc(Br)c43)CC2)CC1
5.3	NCC(=O)N1CCC(CC(=O)N2CCC([C@H]3c4ncc(Br)cc4CCc4cc(Cl)cc(Br)c43)CC2)CC1

Further lines, the compound ahead of its results:

SMILES	IC50 [nM]
CS(=O)(=O)N1CCC(CC(=O)N2CCC([C@H]3c4ncc(Br)cc4CCc4cc(Cl)cc(Br)c43)CC2)CC1	2
CCOC(=O)CNC(=O)N1CCC(CC(=O)N2CCC([C@H]3c4ncc(Br)cc4CCc4cc(Cl)cc(Br)c43)CC2)CC1	2
O=C(O)CNC(=O)N1CCC(CC(=O)N2CCC([C@H]3c4ncc(Br)cc4CCc4cc(Cl)cc(Br)c43)CC2)CC1	0.8
